Shown are actives, neighbours in structure and some others; about 0.92% of the full set was active somewhere.
uPA generation – inhibitors of cell surface uPA generation; AID 540303; Potency, µM (doses to about 38.3 µM), hits mostly inhibitors; cell surface uPA generation assay, qHTS; actives 0.31% (n = 330,000); active means well fitted inhibition curve with a large enough effect; inconclusive means small, poorly fitted or top-dose-only effect; inactive means no such curve, though single readings can be large or run the other way; tested in mouse RAW 264.7 cells; further: nearly all actives have a fitted effect of over 55% in size
B2AR arrestin – agonists driving beta-arrestin recruitment to human beta2-adrenergic receptor. P07550. beta-arrestin recruitment to beta2AR, cell-based reporter. Potency, µM (top dose mostly 46.1 µM), actives largely listed as activators. actives 0.02% (n = 330,000). AID 492947; further: nearly all actives have a fitted effect of over 65% in size
miR-21 reporter – raises the signal of a miR-21 reporter | HeLa miR-21 FLuc reporter, luciferase, 48 h | Potency, µM (highest dose often 38.3 µM) | 340,000 tested, under 10 active | AID 2288; active = well fitted rising curve with a large enough effect; inconclusive = small, poorly fitted or top-dose-only effect; inactive = no such curve, though single readings can be large or run the other way;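 note: miR-21 action dims this reporter so a rising signal means less miR-21 action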
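HeLa cells stably expressing CMV-driven firefly luciferase with a downstream miR-21 binding sequence, endogenously expressing miR-21, were treated with titrations (up to about 40uM final) for 48 hours at 37 degree Celsius. Luciferase luminescence was read after lysis.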
GALK inhibitor – blocks human galactokinase activity | P51570 | Purified GALK, Kinase-Glo residual ATP luminescence | Potency, µM (titrated, usually from 57.5 µM), hits mostly inhibitors | actives 0.007% (n = 270,000) | AID 1868
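Compounds were pin-transferred into ATP buffer (35 uM final), then GALK plus galactose (5 nM, 100 uM final) was added. After 1 h at room temperature, Kinase-Glo Plus was added and luminescence read after 10 min.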
Coupling enz – inhibits coupling enzyme system, counter-screen for aldolase hits; coupling enzyme system counterscreen, AmpLite Red fluorescence; activity change, negative = inhibition, % at 58.2 µM, hits read low; actives 0.67% (n = 290,000); in the data active means activity change below about -30%
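Counterscreen of the coupled detection system alone, without aldolase: glyceraldehyde-3-phosphate coupling enzymes plus AmpLite Red readout. Compounds at 57.5 uM final, 10 min RT preincubation, 20 min RT reaction, fluorescence 525/598 nm.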
Giardia kill – Giardia lamblia killing. Giardia lamblia trophozoite viability. activity change, % at 7.66 µM, hits read low. actives 0.15% (n = 340,000). AID 540267; in the data active means activity change below about -80%; inconclusive means between about -30% and that limit;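 further: parasites exposed to compound for two days anaerobically before the ATP read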
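Compounds were tested on trophozoites seeded at 100 cells/well and held 48 hrs at 37 deg C anaerobically. An ATP-based luminescent kit measured the remaining live cells.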
Each line names hits and unclear results; the compound was inactive in the other large screens. Unless noted, the call rests on the fitted dose curve; in most records, active means well fitted curve in the direction sought with a large enough effect; inconclusive means small, poorly fitted or top-dose-only effect, or another doubt; inactive means no such curve, though single readings can be large; an effect the other way counts as inactive or inconclusive.

O=C(N/N=C/c1cc(O)ccc1Br)c1cccnc1	uPA generation 10µM
O=C(N/N=C/c1cc(Br)c(O)c(Br)c1O)c1cccnc1	none
O=C(N/N=C/c1ccccc1O)c1ccncc1	uPA generation 7.08µM (no result: miR-21 reporter, GALK inhibitor, Coupling enz)
CCOc1ccc(/C=C/c2nc(C#N)c(N(C)C)o2)cc1	none (no result: uPA generation, B2AR arrestin, GALK inhibitor, Coupling enz, Giardia kill)
CCNc1oc(/C=C/c2ccc(OCC)cc2)nc1C#N	uPA generation 3.16µM
COc1cc(C(c2c(C)[nH][nH]c2=O)c2c(C)[nH][nH]c2=O)ccc1OCc1ccc([N+](=O)[O-])cc1	Coupling enz -35.2
Cc1nc2cc3nc(C(F)(F)F)[nH]c3cc2[nH]1	Coupling enz -35.9
CC1=C(C)/C(=N\OS(=O)(=O)c2ccccc2)C=CC1=O	B2AR arrestin inconclusive, miR-21 reporter inconclusive, Coupling enz -77.3
Cc1ccc(S(=O)(=O)O/N=C2\CCCc3ccccc32)cc1	none
COc1ccc(NC(=O)c2ccco2)cc1NC(=O)COc1ccc(Cl)c(C)c1	none (no result: uPA generation, B2AR arrestin, GALK inhibitor, Coupling enz, Giardia kill)
O=C1Cc2ccccc2Sc2cc(OCCCN3CCCCC3)ccc21	none
CN(C)CCCOc1ccc2c(c1)Sc1ccccc1CC2=O	Coupling enz -66.4, Giardia kill inconclusive
CN1CCc2c(sc3c2C(=O)NC(c2ccc(C(C)(C)C)cc2)N3)C1 (stereo unspecified)	none (no result: uPA generation, B2AR arrestin, GALK inhibitor, Coupling enz, Giardia kill)
CN[C@H]1CCc2cc(OC)c(OC)c(OC)c2-c2ccc(N(C)CC(OC)OC)c(=O)cc21	uPA generation 3.55µM
Cc1cc2sc3ccc(C#CC4(O)CCCCC4)cc3c(=O)c2cc1C	uPA generation 10µM, Giardia kill inconclusive (no result: B2AR arrestin, miR-21 reporter, GALK inhibitor, Coupling enz)
O=c1c2ccccc2oc2ccc(C#CC3(O)CCCCC3)cc12	uPA generation 2.82µM, Giardia kill inconclusive (no result: B2AR arrestin, miR-21 reporter, GALK inhibitor, Coupling enz)
N#Cc1ccc(C#Cc2ccc3oc4ccccc4c(=O)c3c2)cc1	none (no result: miR-21 reporter, GALK inhibitor, Coupling enz)
Cn1c2ccccc2c(=O)c2cc(C#CC3(O)CCCCC3)ccc21	uPA generation 1.26µM, Giardia kill inconclusive (no result: GALK inhibitor)
O=C(NCc1ccc(F)cc1)c1cc2cccc3c2n1CCS3	none (no result: uPA generation, B2AR arrestin, GALK inhibitor, Coupling enz, Giardia kill)
N#C/C(=N/Nc1ccc(OC(F)(F)F)cc1)C(N)=S	uPA generation 7.94µM
Nc1ccc2nn(-c3ccccc3)nc2c1	none
Nc1cc2nn(-c3ccccc3)nc2cc1Cl	Coupling enz -43.8
CCO[C@@H]1OC(C(=O)NCc2nc3ccccc3[nH]2)=C[C@H](C2CC2)[C@H]1CCCO	uPA generation 4.47µM
CC1=C(C(N)=O)C(c2ccc(C(C)C)cc2)n2nc(SCc3ccccc3)nc2N1 (stereo unspecified)	none (no result: uPA generation, B2AR arrestin, GALK inhibitor, Coupling enz, Giardia kill)
Cn1ccc2cc(-c3ccc4ncnc(NCc5cccs5)c4c3)ccc21	uPA generation 7.94µM (no result: miR-21 reporter, GALK inhibitor, Coupling enz)
Cc1ccc(S(=O)(=O)N(C)C)cc1NC(=S)Nc1cccc2ccccc12	none
Fc1ccc(NC(=S)Nc2cccc3cnccc23)cc1	Coupling enz -50.6
Fc1ccc(NC(=S)Nc2cccc3ccccc23)cc1F	none
CN(C)S(=O)(=O)c1cccc(NC(=S)Nc2cccc3cnccc23)c1	miR-21 reporter inconclusive, Coupling enz -53.4
Fc1cccc(NC(=S)Nc2cccnc2)c1	none
S=C(Nc1cccnc1)Nc1cccc2cnccc12	Coupling enz -37.3
S=C(Nc1ccc(Cl)cc1)Nc1cccc2cnccc12	Coupling enz -47.6 (no result: GALK inhibitor)
Cc1c(Cl)cccc1NC(=O)CSc1nc(=O)n(Cc2ccco2)c2c1CCC2	none (no result: uPA generation, B2AR arrestin, GALK inhibitor, Coupling enz, Giardia kill)
COC(=O)c1ccc(OC(=O)CS(=O)c2ccccc2[N+](=O)[O-])cc1 (stereo unspecified)	none
O=C(CS(=O)c1ccc(C(F)(F)F)cc1[N+](=O)[O-])Oc1ccccc1 (stereo unspecified)	miR-21 reporter inconclusive, Coupling enz -39.3
CCCCCC/C=C/c1ccc(C2C3C=CCC(C)C3C(=O)N2Cc2ccccc2)c(F)c1 (stereo unspecified)	none (no result: uPA generation, B2AR arrestin, miR-21 reporter, GALK inhibitor)
Nc1ccc2cn[nH]c2c1	Coupling enz -32.2
Brc1ccc2[nH]ncc2c1	none
CC1=[N+](C)c2ccc3ccccc3c2C1(C)C	uPA generation 2.24µM, miR-21 reporter inconclusive
COc1ccc(CCNC(=O)C2CCCN(c3nc4c(C)cc(C)cc4s3)C2)cc1OC (stereo unspecified)	none (no result: uPA generation, B2AR arrestin, GALK inhibitor, Coupling enz, Giardia kill)
O=C(COC(=O)c1ccc([N+](=O)[O-])o1)NC1CCCCC1	none (no result: miR-21 reporter, GALK inhibitor, Coupling enz)

From PubChem BioAssay
